Biological target: Proto-oncogene tyrosine-protein kinase Src (Homo sapiens, UniProt P12931)
Assay: Inhibition of tyrosine kinase(c-Src)

Chains of the proteins cited; added tags and fusions are not shown. Lines headed by an entry give the natural chain unless they say otherwise; changes in a name come on top.
UniProt P12931: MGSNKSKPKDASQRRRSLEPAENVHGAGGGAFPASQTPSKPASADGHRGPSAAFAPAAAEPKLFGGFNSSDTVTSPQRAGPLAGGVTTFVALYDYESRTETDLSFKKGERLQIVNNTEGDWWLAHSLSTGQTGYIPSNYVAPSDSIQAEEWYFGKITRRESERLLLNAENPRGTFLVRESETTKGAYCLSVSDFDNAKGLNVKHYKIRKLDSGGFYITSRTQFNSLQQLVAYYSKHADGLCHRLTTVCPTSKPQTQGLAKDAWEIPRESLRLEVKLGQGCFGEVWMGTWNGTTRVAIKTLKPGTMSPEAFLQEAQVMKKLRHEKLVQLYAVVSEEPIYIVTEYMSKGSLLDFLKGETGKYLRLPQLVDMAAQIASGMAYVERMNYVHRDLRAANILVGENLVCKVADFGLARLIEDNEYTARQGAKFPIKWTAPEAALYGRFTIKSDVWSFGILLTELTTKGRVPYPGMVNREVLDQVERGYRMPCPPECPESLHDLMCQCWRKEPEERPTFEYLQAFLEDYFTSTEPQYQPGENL

IC50: > 100 µM
Compound: Cc1ccc(NC(=O)c2ccccc2)cc1Nc1nccc(-c2cccnc2)n1

From ChEMBL document CHEMBL1159186 (Bioorg Med Chem Lett, 1996)
